## AlphaSeq binding of Ab-14 heavy chain variants to a spike HR2 peptide

Target: peptide PDVDLGDISGINAS, taken from heptad repeat 2 (HR2) of SARS-CoV-2 spike.

Parent scFv Ab-14: VH joined to VL by the linker GGGGSGGGGSGGGGS. Changes lie in the heavy chain CDRs alone.
VH: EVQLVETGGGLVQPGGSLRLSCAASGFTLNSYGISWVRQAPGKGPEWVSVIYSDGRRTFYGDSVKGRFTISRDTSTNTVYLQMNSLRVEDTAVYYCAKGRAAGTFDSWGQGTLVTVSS
VL: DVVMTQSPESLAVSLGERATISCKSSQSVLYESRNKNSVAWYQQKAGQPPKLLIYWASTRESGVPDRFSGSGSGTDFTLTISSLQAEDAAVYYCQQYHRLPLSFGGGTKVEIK

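AAYL49 was designed without a model: most single CDR substitutions and a random sample of double and triple ones. AlphaSeq pools MATa yeast showing the antibodies with MATalpha yeast showing the peptide. The frequency of each diploid, read from paired DNA barcodes, reflects how well the two displayed proteins bind. The ratio of observed to expected reads was calibrated, replicate by replicate, on BCL2-family standards whose Kd was known from biolayer interferometry. There are three technical replicates.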

Positions count from residue 1 of the parent VH; S53L puts L in place of S. Numbers give log10(Kd / nM), so 0 is 1 nM and 3 is 1 µM. Smaller is tighter. The mean shown is taken over the replicates in which the pair was detected. An entry "nd" has no value in the source: the pair was not observed among the diploids in that replicate. This suggests poor binding but is not conclusive.

changes,"log10 Kd, replicates","log10 Kd (nM), mean",signal with controls
S53L G99L G103Q,nd / nd / nd,nd,0 of 9
S53F R57Y A101R,nd / nd / nd,nd,0 of 9
T28M S107F,4.49 / 3.82 / 3.32,3.88,4 of 9 (4.59)
N30A S35Y I51H,nd / nd / nd,nd,1 of 9 (3.82)
S35Q,4.94 / 4.34 / 4.61,4.63,7 of 9 (4.83)
S31H S53D G55Q,nd / nd / nd,nd,0 of 9
G55I R56G,nd / nd / nd,nd,1 of 9 (2.13)
K65V G103R,4.58 / nd / nd,4.58,0 of 9
A102S,1.08 / 1.28 / 1.18,1.18,1 of 9 (5.05)
G26D G55K K65Y,nd / nd / nd,nd,0 of 9
L29Y D54T F105E,nd / nd / nd,nd,2 of 9 (4.56)
Y32V D54G A101F,nd / nd / 3.45,3.45,1 of 9 (2.56)
F105G,0.60 / 1.00 / 0.91,0.84,1 of 9 (3.64)
N30L I51Y K65S,nd / nd / nd,nd,0 of 9
F27T N30E,nd / 2.85 / nd,2.85,0 of 9
G26P S107W,2.22 / 2.09 / 2.54,2.28,0 of 9
D62E K65E T104C,3.59 / 4.72 / 3.93,4.08,5 of 9 (4.74)
R100I G103A T104I,0.18 / 0.29 / 0.16,0.21,0 of 9
S35D D54H T58S,nd / nd / nd,nd,0 of 9
G33D R56Q Y60R,6.26 / nd / nd,6.26,4 of 9 (4.50)
G61K D62E G99I,nd / nd / nd,nd,1 of 9 (3.31)
I51G F59W G103M,nd / nd / nd,nd,0 of 9
G26S S35Q G61H,4.18 / 4.20 / 4.59,4.32,9 of 9 (4.29)
S35N A102N F105Y,3.77 / 2.98 / 4.32,3.69,4 of 9 (4.09)
F27T S35Y A102N,5.06 / 4.71 / nd,4.88,5 of 9 (5.21)
I34D V64R,nd / nd / nd,nd,0 of 9
R56K K65L T104M,6.05 / nd / nd,6.05,4 of 9 (4.15)
F27Y D54T G61P,nd / nd / nd,nd,0 of 9
Y52A G55M R56A,nd / 3.08 / 2.83,2.96,3 of 9 (4.47)
S35F G61L D106I,nd / nd / nd,nd,0 of 9

Three control strains display no target. For library AAYL49, 15% of the pairings with them gave a signal, with a median of 4.06 and one signal in twenty below 2.83, so weak values seen in few replicates may be background. The control count says in how many pairings with the empty strains this scFv gave a signal, with their mean in brackets. Parent in this assay: reference entry 0.65, copy in this library 4.11 (one replicate of three).

The measurements come from Engelhart et al. 2022 (doi:10.1038/s41597-022-01779-4) through the FLAb antibody collection.